According to PubChem BioAssay AID623870 (Broad Institute, 2012):
The list shows a part of the results, in another mix than the full data. Some salts or complexes appear as unconnected parts, following the source record. Active and inactive are the calls of the source.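 The calls were made as follows: active = mean inhibition of replicates at least 50% and at least half of replicates each reaching 50%; inconclusive = half or more replicates reach 50% but mean below 50%; inactive = the rest.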

The compounds below were run against Transforming acidic coiled-coil-containing protein 3 (Homo sapiens) (UniProt Q9Y6A5) (assay: disruptors of ARNT/TACC3 protein interaction, primary screen, biochemical, AlphaScreen, single concentration (AID 623870;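 also: 0% = complete ARNT plus TACC3 wells and 100% = ARNT alone without TACC3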)). Conditions: AlphaScreen His-ARNT PAS-B/GST-TACC3 binding, luminescence; at 9.99 µM; stronger effect = higher value; TACC3 fragment carries E629A point mutation.
In the case of `CN1CCCCC1COC(=O)C1(O)c2ccccc2CCc2ccccc21` (configuration not stated), the inhibition is reported as inactive: -8.85%. With `COc1ccccc1OP(C)(=O)Nc1c(C)cccc1C` (configuration not stated) the inhibition was inactive: 2.26%. With `O=[N+]([O-])c1cc([N+](=O)[O-])c(Nc2nnnn2CCO)c([N+](=O)[O-])c1` the inhibition was inactive: 1.77%. With `CC1=C2N=C(C=C3N=C(C(C)=C4[N-][C@@](C)([C@@H]5N=C1[C@](C)(CCC(=O)NC[C@@H](C)OP(=O)([O-])O[C@H]1[C@@H](O)[C@@H](n6cnc7cc(C)c(C)cc76)O[C@@H]1CO)[C@H]5CC(N)=O)[C@@](C)(CC(N)=O)[C@@H]4CCC(N)=O)[C@@](C)(CC(N)=O)[C@@H]3CCC(N)=O)C(C)(C)[C@@H]2CCC(N)=O.[C-]#N.[Co+3]` the inhibition was inactive: 25.2%. For `CCOC(=O)C(CC)C1=NC(C)(C)Cc2ccccc21.O=[N+]([O-])c1cc([N+](=O)[O-])c(O)c([N+](=O)[O-])c1` (configuration not stated), the inhibition was inactive: -13.9%. In the case of `Cc1nc2ccc3ccccc3c2s1.O=[N+]([O-])c1cc([N+](=O)[O-])c(O)c([N+](=O)[O-])c1`, the inhibition is reported as inactive: -4.57%. `O=[N+]([O-])c1cc([N+](=O)[O-])c(-c2cnn(-c3ccccc3)c2)c([N+](=O)[O-])c1` was tested, and the inhibition was inactive: 9.86%. In the case of `O=[N+]([O-])c1cc([N+](=O)[O-])c(-n2nnc3ccccc32)c([N+](=O)[O-])c1`, the inhibition is reported as inactive: -3.85%. `Cc1ccccc1NP(C)(=O)Nc1ccccc1C` was tested, and the inhibition was inactive: -1.33%. `CP(=O)(Nc1ccc2c(c1)OCCO2)Oc1ccccc1` (configuration not stated) was tested, and the inhibition was inactive: -5.77%. With `CCOP(C)(=S)SCC(=O)NC(C)(CC)C(=O)O` (configuration not stated) the inhibition was inactive: -9.12%. `CP(=O)(Nc1ccc(SC(F)(F)F)cc1)Oc1ccc(F)cc1` (configuration not stated) was tested, and the inhibition was inactive: 9.27%. With `Cc1c(C(c2ccc3c(c2)OCO3)c2c(C)n(C)n(-c3ccccc3)c2=O)c(=O)n(-c2ccccc2)n1C.O=[N+]([O-])c1cc([N+](=O)[O-])c(O)c([N+](=O)[O-])c1` the inhibition was inactive: -2.89%. In the case of `O=[N+]([O-])c1cc([N+](=O)[O-])c(NCC2CCS(=O)(=O)C2)c([N+](=O)[O-])c1` (configuration not stated), the inhibition is reported as inactive: 0.041%. With `Cc1cc(-c2cccc3ccccc23)c(C)cn1.O=[N+]([O-])c1cc([N+](=O)[O-])c(O)c([N+](=O)[O-])c1` the inhibition was inactive: -1.38%. With `O=[N+]([O-])c1ccc(OP2(=O)COCCO2)cc1` (configuration not stated) the inhibition was inactive: -28.9%. For `COc1ccc(NP(C)(=O)Oc2ccccc2OC)cc1` (configuration not stated), the inhibition was inactive: -1.41%. In the case of `CN(C)CCOC(=O)C(O)(c1ccccc1)C1CCCCC1` (configuration not stated), the inhibition is reported as inactive: -2.47%. `COc1ccc(OP(C)(=O)Nc2cccc(Br)c2)cc1` (configuration not stated) was tested, and the inhibition was inactive: -3.1%. In the case of `O=[N+]([O-])c1cc([N+](=O)[O-])c(OC2CCCCC2O)c([N+](=O)[O-])c1` (configuration not stated), the inhibition is reported as inactive: -16.3%. For `CCCCCOc1ccc(NP(C)(=O)Oc2ccc(Cl)cc2Cl)cc1` (configuration not stated), the inhibition was inactive: -5.64%. With `CP(=O)(Nc1ccccc1)Oc1ccc(F)cc1` (configuration not stated) the inhibition was inactive: 8.72%. `CCN(CC)CCCOC(=O)C(O)(c1ccccc1)C1CCCCC1` (configuration not stated) was tested, and the inhibition was inactive: -4.95%. `Cc1c([N+](=O)[O-])cc([N+](=O)[O-])c(Br)c1[N+](=O)[O-]` was tested, and the inhibition was inactive: -9.37%. For `COc1ccc(OP(C)(=O)Nc2ccc(SC(F)(F)F)cc2)cc1` (configuration not stated), the inhibition was inactive: -0.261%. With `CCOC(=O)c1ccc(NP(C)(=O)Oc2ccc(F)cc2)cc1` (configuration not stated) the inhibition was inactive: -3.21%. For `COc1ccc2c(c1O)-c1c(O)c(OC)cc3c1[C@H](C2)[N+](C)(C)CC3.O=[N+]([O-])c1cc([N+](=O)[O-])c([O-])c([N+](=O)[O-])c1[O-]`, the inhibition was inactive: 1.69%. In the case of `O=C(OC1CN2CCC1CC2)c1ccc([N+](=O)[O-])cc1` (configuration not stated), the inhibition is reported as inactive: -26.1%. For `CC(C)c1ccc(OP(C)(=O)Nc2ccc(SC(F)(F)F)cc2)cc1` (configuration not stated), the inhibition was inactive: -4.23%. With `CP(=O)(Nc1ccccc1F)Oc1ccccc1` (configuration not stated) the inhibition was inactive: -15.7%. In the case of `CCc1ccc(OP(C)(=O)O)cc1`, the inhibition is reported as inactive: -5.3%. With `CP(=O)(Nc1ccccn1)Oc1ccccc1` (configuration not stated) the inhibition was inactive: -3.65%. With `COc1ccccc1OP(C)(=O)Nc1ccc(C)cc1C` (configuration not stated) the inhibition was inactive: -5.59%. For `O=[N+]([O-])c1cc([N+](=O)[O-])c(Nc2ccccn2)c([N+](=O)[O-])c1`, the inhibition was inactive: 16.5%. `Cc1c(NP(C)(=O)Oc2ccc(C(C)C)cc2)c(=O)n(-c2ccccc2)n1C` (configuration not stated) was tested, and the inhibition was inactive: -1.24%. With `CN(C)CCOC(=O)C(O)(c1ccccc1)C1CCCC1` (configuration not stated) the inhibition was inactive: -20.2%. `COc1ccc(OP(C)(=O)Nc2ccccn2)cc1` (configuration not stated) was tested, and the inhibition was inactive: 0.343%. With `COc1ccccc1OP(C)(=O)Nc1ccc(Br)cc1` (configuration not stated) the inhibition was inactive: -5.42%. For `CP(=O)(OCCOc1ccccc1)OCCOc1ccccc1`, the inhibition was inactive: -0.826%. `CP(=O)(Nc1ccc(Cl)cc1Cl)Oc1ccccc1` (configuration not stated) was tested, and the inhibition was inactive: -3.51%. With `CCCCCCCCCCCCCCCC1C[N+](C)(C)CCOP(C)(=O)O1` (configuration not stated) the inhibition was inactive: 2.49%. `COc1ccc(OP(C)(=O)Nc2ccccc2Br)cc1` (configuration not stated) was tested, and the inhibition was inactive: -1.37%. For `COc1ccccc1OP(C)(=O)Nc1ccc(C)c(C)c1` (configuration not stated), the inhibition was inactive: -4.5%. `O=C1C(O)=C([N+](=O)[O-])C(=O)C(O)=C1[N+](=O)[O-]` was tested, and the inhibition was inactive: 5.26%. With `Cc1cc(C)cc(OP(C)(=O)Nc2cccc(C(F)(F)F)c2)c1` (configuration not stated) the inhibition was inactive: -1.67%. In the case of `CP(=O)(OC12CC3CC(CC(C3)C1)C2)OC12CC3CC(CC(C3)C1)C2`, the inhibition is reported as inactive: 4.62%. With `CCOC(=O)c1ccc(NP(C)(=O)Oc2ccc(Cl)cc2)cc1` (configuration not stated) the inhibition was inactive: -0.742%. With `CN(C)C(=O)c1c([N+](=O)[O-])cc([N+](=O)[O-])cc1[N+](=O)[O-]` the inhibition was inactive: 7.31%. With `CP(=O)(Nc1ccc(Cl)cc1)Oc1ccc(F)cc1` (configuration not stated) the inhibition was inactive: -20.2%. `CC(C)(C)c1ccc(OP(C)(=O)O)cc1` was tested, and the inhibition was inactive: 0.947%. `COc1ccccc1OP(C)(=O)Nc1ccccc1Br` (configuration not stated) was tested, and the inhibition was inactive: 0.295%. With `CP(=O)(Oc1ccccc1)N1CCOC1=O` (configuration not stated) the inhibition was inactive: -5.45%. In the case of `CCc1ccc(OP(C)(=O)Nc2cccnc2)cc1` (configuration not stated), the inhibition is reported as inactive: 10.6%. With `COc1ccccc1OP(C)(=O)Nc1c(C)n(C)n(-c2ccccc2)c1=O` (configuration not stated) the inhibition was inactive: -2.57%. With `O=C(OCCCN1CCCC1)C(O)(c1ccccc1)C1CCCCC1` (configuration not stated) the inhibition was inactive: -0.816%. For `CCN(CC)CC(O)COC(=O)C(O)(c1ccccc1)C1CCCCC1` (configuration not stated), the inhibition was inactive: 0.149%. In the case of `COc1ccc(OP(C)(=O)Nc2ccc(Br)cc2)cc1` (configuration not stated), the inhibition is reported as inactive: -0.953%.
